The target in one assay is D(4) dopamine receptor (Homo sapiens, UniProt P21917).
The next assay deals with D(3) dopamine receptor (Homo sapiens, UniProt P35462).

Amino acid sequences for entries named in this document (tags omitted).
UniProt P21917, whole entry: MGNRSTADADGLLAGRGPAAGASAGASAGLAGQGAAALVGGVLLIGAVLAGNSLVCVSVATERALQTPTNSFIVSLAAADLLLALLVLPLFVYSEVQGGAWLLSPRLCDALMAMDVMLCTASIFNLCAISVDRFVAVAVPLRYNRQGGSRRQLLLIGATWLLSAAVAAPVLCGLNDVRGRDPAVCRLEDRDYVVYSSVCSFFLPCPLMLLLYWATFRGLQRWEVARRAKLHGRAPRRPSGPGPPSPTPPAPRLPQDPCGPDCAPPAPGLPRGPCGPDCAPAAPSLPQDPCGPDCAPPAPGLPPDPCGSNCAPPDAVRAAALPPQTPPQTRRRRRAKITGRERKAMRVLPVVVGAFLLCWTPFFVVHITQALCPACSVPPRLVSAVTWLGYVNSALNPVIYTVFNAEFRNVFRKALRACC
UniProt P35462, whole entry: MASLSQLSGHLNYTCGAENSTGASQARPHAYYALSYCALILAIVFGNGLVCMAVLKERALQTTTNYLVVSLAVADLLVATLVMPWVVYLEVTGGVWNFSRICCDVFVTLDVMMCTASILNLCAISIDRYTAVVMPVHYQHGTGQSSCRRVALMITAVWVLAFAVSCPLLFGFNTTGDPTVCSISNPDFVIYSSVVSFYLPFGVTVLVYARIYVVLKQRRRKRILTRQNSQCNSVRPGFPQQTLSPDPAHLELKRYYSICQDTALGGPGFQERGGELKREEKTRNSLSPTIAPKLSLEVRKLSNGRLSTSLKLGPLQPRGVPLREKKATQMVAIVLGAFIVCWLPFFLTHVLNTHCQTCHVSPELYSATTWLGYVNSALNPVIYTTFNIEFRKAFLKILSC

As to `O=C(CCCN1CCC(O)(c2ccc(Cl)cc2)C1)c1ccc(F)cc1` (configuration not stated), the Ki on D(4) dopamine receptor came to 11 nM; at D(3) dopamine receptor, 200 nM.
